This assay concerns the target Cannabinoid receptor 2 (Homo sapiens, UniProt P34972). Description: Displacement of [3H]CP55940 from recombinant human CB2 receptor expressed in HEK293 cell membranes at 10 uM measured after 90 mins relative to control. A general note: Displacement assays read how much labelled ligand stays bound in the presence of the test substance.

Chains of the proteins cited; added tags and fusions are not shown.
UniProt P34972, whole entry: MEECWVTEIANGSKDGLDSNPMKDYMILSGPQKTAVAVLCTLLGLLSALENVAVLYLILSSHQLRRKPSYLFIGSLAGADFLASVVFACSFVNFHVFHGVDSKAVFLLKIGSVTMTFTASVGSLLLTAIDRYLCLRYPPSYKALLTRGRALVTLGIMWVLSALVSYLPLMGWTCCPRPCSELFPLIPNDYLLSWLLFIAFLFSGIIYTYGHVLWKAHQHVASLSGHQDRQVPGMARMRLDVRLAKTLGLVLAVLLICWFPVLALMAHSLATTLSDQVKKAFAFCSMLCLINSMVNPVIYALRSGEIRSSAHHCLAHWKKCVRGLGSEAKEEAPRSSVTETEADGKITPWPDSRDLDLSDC

By inhibition is commonly meant the change of the read-out against control, counted positive when it falls. In the case of `Cc1ccc2c(c1)nc(Cn1nnc3ccccc31)n2CCN(C)C`, the inhibition amounted to 17.3%.

The record behind these values is ChEMBL document CHEMBL4368878 (Medchemcomm, 2018).
